Test results taken from ChEMBL document CHEMBL1151014, “Tetrazole-substituted ureas as inhibitors of acyl-CoA:cholesterol O-acyltransferase (ACAT). A novel preparation of ureas from weakly nucleophilic amines” (Bioorg Med Chem Lett, 1996).

Target: T1, Sterol O-acyltransferase 1 (Rattus norvegicus, UniProt O70536)
T1 sequence (O70536 whole entry): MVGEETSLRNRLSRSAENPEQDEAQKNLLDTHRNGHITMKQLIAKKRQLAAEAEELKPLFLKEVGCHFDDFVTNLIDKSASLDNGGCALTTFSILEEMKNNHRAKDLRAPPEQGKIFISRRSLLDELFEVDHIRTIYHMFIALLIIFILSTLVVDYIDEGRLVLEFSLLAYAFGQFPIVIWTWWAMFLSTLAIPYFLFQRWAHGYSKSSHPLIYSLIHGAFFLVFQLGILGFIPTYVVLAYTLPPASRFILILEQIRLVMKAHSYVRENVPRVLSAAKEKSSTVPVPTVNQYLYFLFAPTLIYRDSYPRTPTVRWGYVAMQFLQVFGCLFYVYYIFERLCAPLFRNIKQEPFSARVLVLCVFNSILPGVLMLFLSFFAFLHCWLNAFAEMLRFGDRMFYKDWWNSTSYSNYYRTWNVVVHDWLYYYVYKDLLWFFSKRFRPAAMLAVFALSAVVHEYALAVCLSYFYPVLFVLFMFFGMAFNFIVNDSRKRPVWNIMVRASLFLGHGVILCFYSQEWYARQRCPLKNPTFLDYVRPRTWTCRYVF
Test: Liver Acyl coenzyme A:cholesterol acyltransferase inhibitory activity was determined in vitro using [1-14C]oleolyl-CoA and microsomes isolated from the livers of cholesterol fed rats
Set-up: species or system Microsome

IC50: 47 nM
Compound: CCCCCCCCCCCCn1nnc(N(C(=O)Nc2c(C(C)C)cccc2C(C)C)c2ccccc2)n1
